Measurements reported in publication PMC8624105 (Viruses, 2021).

What was measured:
MAST2 = experiment: holdup assay; assay type: binding, human
NHERF2 PDZ2 = experiment: holdup assay; assay type: binding, human
SHANK2 = experiment: holdup assay; assay type: binding, human
SCRIB PDZ3 = experiment: holdup assay; assay type: binding, human
PARD3B PDZ1 = experiment: holdup assay; assay type: binding, human; details: PDZ about 4 μM; two independent experiments
PARD3 PDZ3 = experiment: holdup assay; assay type: binding, human; details: PDZ about 4 μM; two independent experiments
CNKSR2 PDZ1 = experiment: holdup assay; assay type: binding, human; details: PDZ about 4 μM; two independent experiments
LMO7 PDZ1 = experiment: holdup assay; assay type: binding, human; details: PDZ about 4 μM; two independent experiments
PPP1R9A PDZ1 = experiment: holdup assay; assay type: binding, human; details: PDZ about 4 μM; two independent experiments
MAGI2 PDZ6 = experiment: holdup assay; assay type: binding, human; details: PDZ about 4 μM; two independent experiments
MAGI3 PDZ1 = experiment: holdup assay; assay type: binding, human; details: PDZ about 4 μM; two independent experiments
PSMD9 PDZ1 = experiment: holdup assay; assay type: binding, human; details: PDZ about 4 μM; two independent experiments
DVL3 PDZ1 = experiment: holdup assay; assay type: binding, human; details: PDZ about 4 μM; two independent experiments
MPDZ PDZ7 = experiment: holdup assay; assay type: binding, human; details: PDZ about 4 μM; two independent experiments
PDZD7 PDZ1 = experiment: holdup assay; assay type: binding, human; details: PDZ about 4 μM; two independent experiments
InaDl PDZ7 = experiment: holdup assay; assay type: binding, human; details: PDZ about 4 μM; two independent experiments
LAP2 PDZ1 = experiment: holdup assay; assay type: binding, human; details: PDZ about 4 μM; two independent experiments
RIMS2 PDZ1 = experiment: holdup assay; assay type: binding, human; details: PDZ about 4 μM; two independent experiments
NOS1 PDZ1 = experiment: holdup assay; assay type: binding, human; details: PDZ about 4 μM; two independent experiments
FRMPD2 PDZ1 = experiment: holdup assay; assay type: binding, human; details: PDZ about 4 μM; two independent experiments
PRX PDZ1 = experiment: holdup assay; assay type: binding, human; details: PDZ about 4 μM; two independent experiments
DLG4 PDZ3 = experiment: holdup assay; assay type: binding, human; details: PDZ about 4 μM; two independent experiments
FRMPD2 PDZ3 = experiment: holdup assay; assay type: binding, human; details: PDZ about 4 μM; two independent experiments
MPDZ PDZ6 = experiment: holdup assay; assay type: binding, human; details: PDZ about 4 μM; two independent experiments
DLG3 PDZ1 = experiment: holdup assay; assay type: binding, human; details: PDZ about 4 μM; two independent experiments
MAGI2 PDZ1 = experiment: holdup assay; assay type: binding, human; details: PDZ about 4 μM; two independent experiments
GRIP2 PDZ7 = experiment: holdup assay; assay type: binding, human; details: PDZ about 4 μM; two independent experiments
SIPA1 PDZ1 = experiment: holdup assay; assay type: binding, human; details: PDZ about 4 μM; two independent experiments
DLG2 PDZ3 = experiment: holdup assay; assay type: binding, human; details: PDZ about 4 μM; two independent experiments
GRIP2 PDZ3 = experiment: holdup assay; assay type: binding, human; details: PDZ about 4 μM; two independent experiments
GRIP2 PDZ6 = experiment: holdup assay; assay type: binding, human; details: PDZ about 4 μM; two independent experiments
MPDZ PDZ3 = experiment: holdup assay; assay type: binding, human; details: PDZ about 4 μM; two independent experiments
MAGI3 PDZ2 = experiment: holdup assay; assay type: binding, human; details: PDZ about 4 μM; two independent experiments
MPP6 PDZ1 = experiment: holdup assay; assay type: binding, human; details: PDZ about 4 μM; two independent experiments
DFNB31 PDZ2 = experiment: holdup assay; assay type: binding, human; details: PDZ about 4 μM; two independent experiments
HTRA3 PDZ1 = experiment: holdup assay; assay type: binding, human; details: PDZ about 4 μM; two independent experiments
LRRC7 PDZ1 = experiment: holdup assay; assay type: binding, human; details: PDZ about 4 μM; two independent experiments
APBA2 PDZ2 = experiment: holdup assay; assay type: binding, human; details: PDZ about 4 μM; two independent experiments
LNX1 PDZ3 = experiment: holdup assay; assay type: binding, human; details: PDZ about 4 μM; two independent experiments
TJP2 PDZ1 = experiment: holdup assay; assay type: binding, human; details: PDZ about 4 μM; two independent experiments
RHPN2 PDZ1 = experiment: holdup assay; assay type: binding, human; details: PDZ about 4 μM; two independent experiments
PARD6A PDZ1 = experiment: holdup assay; assay type: binding, human; details: PDZ about 4 μM; two independent experiments
PREX1 PDZ1 = experiment: holdup assay; assay type: binding, human; details: PDZ about 4 μM; two independent experiments
LIMK2 PDZ1 = experiment: holdup assay; assay type: binding, human; details: PDZ about 4 μM; two independent experiments
USH1C PDZ3 = experiment: holdup assay; assay type: binding, human; details: PDZ about 4 μM; two independent experiments
PDZD2 PDZ5 = experiment: holdup assay; assay type: binding, human; details: PDZ about 4 μM; two independent experiments
USH1C PDZ1 = experiment: holdup assay; assay type: binding, human; details: PDZ about 4 μM; sd not given
USH1C PDZ2 = experiment: holdup assay; assay type: binding, human; details: PDZ about 4 μM; two independent experiments
human PDZome = experiment: holdup assay, PDZome-binding profile
[1] = PDZ about 4 μM, two independent experiments
[2] = converted from BI, PDZ typically 4 μM, immobilized peptide 21 μM
[3] = converted from BI, PDZ typically 4 μM, immobilized peptide 21 μM, read-out: Kd estimated
[4] = converted from BI, PDZ typically 4 μM, immobilized peptide 21 μM, listed as PBM peptide from ACE2 protein, read-out: Kd estimated

**Q.** How did the “BI (binding intensity)” value (MAST2; [1]) turn out when “Biotin-(PEG3)-GFQNTDDVQTSF [ACE2 PBM peptide]” was run?
**A.** The value was 0.72.

**Q.** What about the Kd estimated (MAST2; [2]) of the same substance?
**A.** The Kd estimated was “micromolar range”.

**Q.** And the pKd (MAST2; [3])?
**A.** Its pKd is 5.16.

**Q.** What about the “BI (binding intensity)” value (NHERF2 PDZ2; [1]) of the same substance?
**A.** The value was 0.67.

**Q.** What about the Kd estimated (NHERF2 PDZ2; [2]) of the same substance?
**A.** The Kd estimated was “micromolar range”.

**Q.** What about the pKd (NHERF2 PDZ2; [3]) of the same substance?
**A.** Its pKd is 5.03.

**Q.** What about the “BI (binding intensity)” value (SHANK2; [1]) of the same substance?
**A.** Its value is 0.62.

**Q.** What about the pKd (SHANK2; [4]) of the same substance?
**A.** The pKd was 4.94.

**Q.** What about the “BI (binding intensity)” value (SCRIB PDZ3; [1]) of the same substance?
**A.** The value was 0.23.

**Q.** And the pKd (SCRIB PDZ3; [4])?
**A.** The pKd was 4.16.

**Q.** What about the “BI (binding intensity)” value (PARD3B PDZ1) of the same substance?
**A.** Its value is 0.10.

**Q.** And the “BI (binding intensity)” value (PARD3 PDZ3)?
**A.** Its value is 0.09.

**Q.** What about the “BI (binding intensity)” value (CNKSR2 PDZ1) of the same substance?
**A.** The value was 0.03.

**Q.** What about the “BI (binding intensity)” value (LMO7 PDZ1) of the same substance?
**A.** The value was 0.03.

**Q.** What about the “BI (binding intensity)” value (PPP1R9A PDZ1) of the same substance?
**A.** The value was 0.02.

**Q.** And the “BI (binding intensity)” value (MAGI2 PDZ6)?
**A.** Its value is 0.02.

**Q.** What about the “BI (binding intensity)” value (MAGI3 PDZ1) of the same substance?
**A.** The value was 0.02.

**Q.** What about the “BI (binding intensity)” value (PSMD9 PDZ1) of the same substance?
**A.** Its value is 0.02.

**Q.** What about the “BI (binding intensity)” value (DVL3 PDZ1) of the same substance?
**A.** Its value is 0.01.

**Q.** What about the “BI (binding intensity)” value (MPDZ PDZ7) of the same substance?
**A.** The value was 0.00.

**Q.** What about the “BI (binding intensity)” value (PDZD7 PDZ1) of the same substance?
**A.** The value was 0.00.

**Q.** And the “BI (binding intensity)” value (InaDl PDZ7)?
**A.** The value was -0.01.

**Q.** What about the “BI (binding intensity)” value (LAP2 PDZ1) of the same substance?
**A.** Its value is -0.02.

**Q.** What about the “BI (binding intensity)” value (RIMS2 PDZ1) of the same substance?
**A.** The value was -0.02.

**Q.** What about the “BI (binding intensity)” value (NOS1 PDZ1) of the same substance?
**A.** Its value is -0.02.

**Q.** And the “BI (binding intensity)” value (FRMPD2 PDZ1)?
**A.** The value was -0.02.

**Q.** And the “BI (binding intensity)” value (PRX PDZ1)?
**A.** Its value is -0.03.

**Q.** And the “BI (binding intensity)” value (DLG4 PDZ3)?
**A.** Its value is -0.03.

**Q.** What about the “BI (binding intensity)” value (FRMPD2 PDZ3) of the same substance?
**A.** The value was -0.03.

**Q.** And the “BI (binding intensity)” value (MPDZ PDZ6)?
**A.** Its value is -0.03.

**Q.** What about the “BI (binding intensity)” value (DLG3 PDZ1) of the same substance?
**A.** The value was -0.04.

**Q.** What about the “BI (binding intensity)” value (MAGI2 PDZ1) of the same substance?
**A.** Its value is -0.04.

**Q.** And the “BI (binding intensity)” value (GRIP2 PDZ7)?
**A.** The value was -0.04.

**Q.** And the “BI (binding intensity)” value (SIPA1 PDZ1)?
**A.** The value was -0.04.

**Q.** What about the “BI (binding intensity)” value (DLG2 PDZ3) of the same substance?
**A.** Its value is -0.04.

**Q.** And the “BI (binding intensity)” value (GRIP2 PDZ3)?
**A.** Its value is -0.04.

**Q.** And the “BI (binding intensity)” value (GRIP2 PDZ6)?
**A.** Its value is -0.04.

**Q.** What about the “BI (binding intensity)” value (MPDZ PDZ3) of the same substance?
**A.** The value was -0.04.

**Q.** And the “BI (binding intensity)” value (MAGI3 PDZ2)?
**A.** The value was -0.05.

**Q.** And the “BI (binding intensity)” value (MPP6 PDZ1)?
**A.** The value was -0.05.

**Q.** What about the “BI (binding intensity)” value (DFNB31 PDZ2) of the same substance?
**A.** The value was -0.05.

**Q.** And the “BI (binding intensity)” value (HTRA3 PDZ1)?
**A.** The value was -0.06.

**Q.** And the “BI (binding intensity)” value (LRRC7 PDZ1)?
**A.** The value was -0.06.

**Q.** What about the “BI (binding intensity)” value (APBA2 PDZ2) of the same substance?
**A.** The value was -0.06.

**Q.** And the “BI (binding intensity)” value (LNX1 PDZ3)?
**A.** The value was -0.07.

**Q.** What about the “BI (binding intensity)” value (TJP2 PDZ1) of the same substance?
**A.** The value was -0.07.

**Q.** And the “BI (binding intensity)” value (RHPN2 PDZ1)?
**A.** Its value is -0.08.

**Q.** What about the “BI (binding intensity)” value (PARD6A PDZ1) of the same substance?
**A.** Its value is -0.08.

**Q.** What about the “BI (binding intensity)” value (PREX1 PDZ1) of the same substance?
**A.** The value was -0.10.

**Q.** What about the “BI (binding intensity)” value (LIMK2 PDZ1) of the same substance?
**A.** The value was -0.11.

**Q.** And the “BI (binding intensity)” value (USH1C PDZ3)?
**A.** Its value is -0.11.

**Q.** What about the “BI (binding intensity)” value (PDZD2 PDZ5) of the same substance?
**A.** The value was -0.13.

**Q.** What about the “BI (binding intensity)” value (USH1C PDZ1) of the same substance?
**A.** The value was -0.13.

**Q.** And the “BI (binding intensity)” value (USH1C PDZ2)?
**A.** Its value is -0.25.

**Q.** What about the “share of the human PDZome targeted” value (human PDZome; BI values higher than 0.2) of the same substance?
**A.** The value was “about 5%”.

**Q.** And the “number of PDZ domains identified as binders” value (human PDZome; BI values higher than 0.2, 266 human PDZ domains tested)?
**A.** Its value is 14 PDZ domains.

**Q.** What about the “share of the human PDZome targeted” value (human PDZome; BI values higher than 0.2, listed as ACE2 PBM) of the same substance?
**A.** The value was 5%.

**Q.** What about the “BI of the 14 PDZ binders” value (human PDZome; two independent experiments, significance threshold 0.2) of the same substance?
**A.** The value was “higher than 0.2”.

pKd: −log10 of the molar value.
